This passage reports IC50 results from patent publication EP1388586A2, “Identification of broadly reactive DR restricted epitopes” (priority 1998, dated 1999).

Bounds are passed on as bounds.

As usually defined, the IC50 is the concentration that inhibits the measured activity by half.

In one assay the target is T1, DRB1*0101 (DR1) (Homo sapiens, UniProt P01903+P01911, A100R/D57E/F55L/F60I/F76Y/I96L/L162R/M171V/P40L/Q125E/R42F/V115G/Y59C).
T1 construct: used as sources of human HLA class II molecules; endogenous in cells; host or cells: LG2 (EBV-transformed homozygous B cell line)
The assay can be described thus: Class II peptide-binding assay, DR1.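 Also: competition assay: unlabeled test peptides inhibit binding of a radiolabeled probe peptide to purified DR, with half-maximal inhibition taken as an approximate dissociation constant Kd.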 As to conditions: Table VIII, page 2; read-out: In IC50 Format DR1.
For `CC[C@H](C)[C@H](NC(=O)[C@H](C)NC(=O)[C@H](CC(C)C)NC(=O)[C@@H](NC(=O)[C@@H](NC(=O)[C@@H](NC(=O)[C@H](CC(C)C)NC(=O)[C@H](CC(C)C)NC(=O)CNC(=O)[C@H](C)N)[C@@H](C)CC)[C@@H](C)CC)C(C)C)C(=O)N[C@H](C(=O)N[C@@H](C)C(=O)N[C@@H](CCCNC(=N)N)C(=O)N[C@@H](CCC(=O)O)C(=O)NCC(=O)O)[C@@H](C)CC` [Peptide 39.0304], the IC50 amounted to 1.11 µM.

The same assay, now with this note: read-out: DR1 nM (In IC50 Format); purified HLA DR1.
With `C[C@H](NC(=O)[C@H](CCCCN)NC(=O)[C@H](CCC(=O)O)NC(=O)[C@@H](NC(=O)[C@@H](NC(=O)[C@H](CCC(=O)O)NC(=O)[C@H](CO)NC(=O)[C@H](CCC(N)=O)NC(=O)[C@H](Cc1ccccc1)NC(=O)[C@H](CCCNC(=N)N)NC(=O)[C@H](C)NC(=O)[C@@H](N)Cc1ccc(O)cc1)[C@@H](C)O)[C@@H](C)O)C(=O)N[C@@H](CCCCN)C(=O)N[C@H](C(N)=O)[C@@H](C)O` [Peptide 717.07], the IC50 worked out at 0.278 µM.

The same assay, now with this note: read-out: In IC50 Format DR1.
For NQIMPKAGLLIIVLA [Peptide 39.0302], the IC50 was 0.114 µM. The same measure, in the same setting: the same measure for NQVMPKTGLLIIVLA [Peptide 39.0286]: 2.63 µM.

The next assay addresses T2, DRB1*0301 (DR3w17) (Homo sapiens, UniProt P01903+P01911, A100K/A102G/A103R/A169T/F55Y/I96L/K41T/L162R/M171V/P40S/Q125H/Q178H/Q39Y/R42S/S66N/T106N/T262R/W38E/Y61H).
T2 construct: used as sources of human HLA class II molecules; endogenous in cells; host or cells: MAT (EBV-transformed homozygous B cell line)
In words: Class II peptide-binding assay, DR3 (pH 4.5).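 Also: unlabeled peptide competing with a radiolabeled probe peptide for binding to affinity-purified HLA-DR3, IC50 regarded as an approximation of Kd.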 The note with it: read-out: In IC50 Format DR3 nM; Table VIII; values in parentheses read as lower bounds.
With `CC[C@H](C)[C@H](NC(=O)[C@H](CCCCN)NC(=O)[C@H](CCC(=O)O)NC(=O)[C@@H](N)CCC(=O)O)C(=O)N[C@@H](Cc1c[nH]c2ccccc12)C(=O)N[C@@H](CCC(=O)O)C(=O)N[C@@H](CCC(=O)O)C(=O)N[C@@H](CC(C)C)C(=O)N[C@@H](CO)C(=O)N[C@@H](CCSC)C(=O)N[C@@H](CC(C)C)C(=O)N[C@@H](CCC(=O)O)C(=O)N[C@H](C(=O)N[C@@H](Cc1ccccc1)C(=O)N[C@@H](CCC(=O)O)C(=O)O)C(C)C` [Peptide 39.0394], the IC50 was 23.1 µM. Consider `CC[C@H](C)[C@H](NC(=O)[C@H](C)NC(=O)[C@H](C)NC(=O)[C@H](CCC(N)=O)NC(=O)[C@H](Cc1ccccc1)NC(=O)[C@H](CCC(=O)O)NC(=O)[C@H](CO)NC(=O)[C@H](CCC(=O)O)NC(=O)[C@H](CC(C)C)NC(=O)[C@H](CC(=O)O)NC(=O)[C@@H]1CCCN1C(=O)[C@@H](N)Cc1ccccc1)C(=O)N[C@@H](CO)C(=O)N[C@@H](CCCNC(=N)N)C(=O)N[C@@H](CCCCN)C(=O)O` [Peptide 39.0387], for which the IC50 was found to be 90.9 µM. Still for that read-out and setting: the value for `CSCC[C@H](NC(=O)[C@@H](NC(=O)[C@H](CCC(N)=O)NC(=O)[C@H](CC(N)=O)NC(=O)[C@H](CC(=O)O)NC(=O)CNC(=O)[C@H](CC(C)C)NC(=O)[C@H](CC(C)C)NC(=O)CNC(=O)[C@H](CC(=O)O)NC(=O)[C@@H](N)Cc1ccc(O)cc1)C(C)C)C(=O)N1CCC[C@H]1C(=O)N[C@@H](CCCCN)C(=O)N[C@H](C(=O)NCC(=O)O)[C@@H](C)O` [Peptide 39.0391] was 11.1 µM; that for `CC(C)C[C@H](NC(=O)[C@H](CC(N)=O)NC(=O)[C@H](C)NC(=O)CN)C(=O)N[C@@H](CC(N)=O)C(=O)N[C@@H](CC(C)C)C(=O)N[C@@H](CO)C(=O)N[C@@H](CS)C(=O)N[C@@H](Cc1c[nH]cn1)C(=O)N[C@@H](CO)C(=O)N[C@@H](C)C(=O)N[C@@H](CO)C(=O)N[C@@H](CC(N)=O)C(=O)N1CCC[C@H]1C(=O)N[C@@H](CO)C(=O)O` [Peptide 39.0337] was above 111 µM. Regarding `CC[C@H](C)[C@H](NC(=O)[C@H](C)NC(=O)[C@@H](NC(=O)[C@@H](NC(=O)[C@H](C)NC(=O)[C@@H](N)CC(C)C)[C@@H](C)CC)[C@@H](C)CC)C(=O)N[C@@H](CCC(=O)O)C(=O)NCC(=O)N[C@@H](CC(=O)O)C(=O)N[C@@H](CS)C(=O)N[C@@H](C)C(=O)N1CCC[C@H]1C(=O)N[C@@H](CCC(=O)O)C(=O)N[C@@H](CCC(=O)O)C(=O)N[C@@H](CCCCN)C(=O)O` [Peptide 39.0392], the IC50 came to 15.8 µM.

Staying with this assay, now noted: read-out: In IC50 Format DR3; Table VIII.
For `CC[C@H](C)[C@H](NC(=O)[C@H](CCC(N)=O)NC(=O)[C@H](CC(N)=O)NC(=O)[C@H](CC(=O)O)NC(=O)CNC(=O)[C@H](CC(C)C)NC(=O)[C@H](CC(C)C)NC(=O)CNC(=O)[C@H](CC(=O)O)NC(=O)[C@H](Cc1ccc(O)cc1)NC(=O)[C@H](CO)NC(=O)[C@H](CC(C)C)NC(=O)CNC(=O)[C@H](CC(C)C)NC(=O)[C@@H](N)CS)C(=O)O` [Peptide 39.0403], the IC50 was above 120 µM. Take `CC[C@H](C)[C@H](NC(=O)[C@H](CCCCN)NC(=O)[C@H](CC(C)C)NC(=O)[C@@H](NC(=O)[C@H](Cc1c[nH]cn1)NC(=O)[C@H](Cc1c[nH]cn1)NC(=O)[C@H](CC(C)C)NC(=O)[C@@H](NC(=O)[C@H](CCCCN)NC(=O)[C@@H](N)C(C)C)C(C)C)[C@@H](C)O)C(=O)NCC(=O)NCC(=O)N[C@@H](CCC(=O)O)C(=O)N1CCC[C@H]1C(=O)N[C@@H](Cc1c[nH]cn1)C(=O)O` [Peptide 39.0397]: the IC50 was above 120 µM. Same read-out and setting: the value for `CC[C@H](C)[C@H](NC(=O)CNC(=O)[C@H](Cc1ccccc1)NC(=O)[C@@H](NC(=O)[C@H](CC(C)C)NC(=O)[C@@H](N)CCC(N)=O)C(C)C)C(=O)N[C@@H](CCC(=O)O)C(=O)N[C@@H](CC(C)C)C(=O)N[C@@H](CCSC)C(=O)N[C@@H](CCC(=O)O)C(=O)N[C@H](C(=O)N[C@@H](CC(=O)O)C(=O)N1CCC[C@H]1C(=O)N[C@H](C(=O)NCC(=O)O)[C@@H](C)CC)C(C)C` [Peptide 39.0401] was 20 µM; that for `CC[C@H](C)[C@H](NC(=O)[C@H](CCCCN)NC(=O)[C@H](CC(C)C)NC(=O)[C@@H](N)[C@@H](C)O)C(=O)NCC(=O)NCC(=O)N[C@@H](CCC(=O)O)C(=O)N1CCC[C@H]1C(=O)N[C@@H](Cc1c[nH]cn1)C(=O)N[C@H](C(=O)N[C@@H](CO)C(=O)N[C@@H](Cc1ccc(O)cc1)C(=O)N1CCC[C@H]1C(=O)N1CCC[C@H]1C(=O)N[C@@H](CC(C)C)C(=O)O)[C@@H](C)CC` [Peptide 39.0398] was above 120 µM; that for `CC[C@H](C)[C@H](NC(=O)[C@H](CCCCN)NC(=O)[C@H](CCC(=O)O)NC(=O)[C@@H](N)CCC(=O)O)C(=O)N[C@@H](Cc1c[nH]c2ccccc12)C(=O)N[C@@H](CCC(=O)O)C(=O)N[C@@H](CCC(=O)O)C(=O)N[C@@H](CC(C)C)C(=O)N[C@@H](CO)C(=O)N[C@H](C(=O)N[C@@H](CC(C)C)C(=O)N[C@@H](CCC(=O)O)C(=O)N[C@H](C(=O)N[C@@H](Cc1ccccc1)C(=O)N[C@@H](CCC(=O)O)C(=O)O)C(C)C)C(C)C` [Peptide 39.0406] was 51.7 µM. The same measure, in the same setting: the value for `CC[C@H](C)[C@H](NC(=O)[C@H](CCC(N)=O)NC(=O)[C@H](CC(N)=O)NC(=O)[C@H](CC(=O)O)NC(=O)CNC(=O)[C@H](CC(C)C)NC(=O)[C@H](CC(C)C)NC(=O)CNC(=O)[C@H](CC(=O)O)NC(=O)[C@@H](N)Cc1ccc(O)cc1)C(=O)N[C@@H](CCSC)C(=O)N1CCC[C@H]1C(=O)N[C@@H](CCCCN)C(=O)N[C@@H](C)C(=O)NCC(=O)O` [Peptide 39.0404] was 37.5 µM; that for `CC(C)C[C@H](NC(=O)[C@H](C)NC(=O)[C@H](C)NC(=O)[C@H](CCC(N)=O)NC(=O)[C@H](Cc1ccccc1)NC(=O)[C@H](CCC(=O)O)NC(=O)[C@H](CO)NC(=O)[C@H](CCC(=O)O)NC(=O)[C@H](CC(C)C)NC(=O)[C@H](CC(=O)O)NC(=O)[C@@H]1CCCN1C(=O)[C@@H](N)Cc1ccccc1)C(=O)N[C@@H](CO)C(=O)N[C@@H](CCCNC(=N)N)C(=O)N[C@@H](CCCCN)C(=O)O` [Peptide 39.0399] was 115 µM.
